Assay results published in PubChem BioAssay AID1347073 (National Center for Advancing Translational Sciences (NCATS), 2019).
The entries are a selection whose mix differs from that of the whole data set. Results filed as inconclusive are left out. Active and inactive are the calls of the source. The call rests on the fitted dose curve; in most records, active means well fitted activation curve with a large enough effect; inconclusive means small, poorly fitted or top-dose-only effect; inactive means no such curve, though single readings can be large or run the other way.

Experiment: qHTS of TDP-43 Inhibitors: NCGC Sytravon Library Screen; further: 0% is about no effect; nearly all actives have a fitted effect of over 55% in size
Conditions: yeast TDP-43 toxicity rescue, BacTiter-Glo growth, 24 h; at 46.1 µM (top of the series)
Text: The goal of this project is to identify new chemical probes capable of reversing the toxicity associated with TDP-43 which is associated with frontotemporal lobar degeneration and amyotrophic lateral sclerosis. These compounds will provide a complementary approach to deciphering the tangled mechanisms of toxicity and protection that we have uncovered through genome-wide genetic screens and are beginning to uncover in a large-scale proteomics analysis with mass spectroscopy. To this end, a miniaturized assay was developed to be screened against the Molecular Libraries Small Molecule Repository (MLSMR) to discover TDP-43 inhibitors. Please note that in the set-up this yeast-based assay compounds that inhibit as TDP-43, have a read-out as activators. NIH Chemical Genomics Center [NCGC] NIH Molecular Libraries Probe Centers Network [MLPCN] Assay Submitter (PI): Susan Lindquist, Whitehead Institute/MIT MLPCN Grant: R21 NS060957
Dispense 2.5 microL yeast galactose medium per 1536-well plate, pin compound, dispense 2.5 microL TDP-43 expressing yeast in galactose medium at OD600=0.02 (pregrown in raffinose medium to mid-log phase) per well, incubate for 24 hr at 30 deg C, and cell growth will be measured using 5 microL of Bactiter/Glo reagent to entire plate and read using Luminescence Protocol in ViewLux.

SMILES	growth rescue (activation)
CCN1CCC(Nc2cccc(F)c2)CC1	inactive: 9.92%
CCCOc1ccc(C(=O)NCC2(N(C)C)CCCCC2)cc1OC	inactive: -0.389%
COc1cc(C(=O)NCC2(N3CCCCC3)CCCCC2)ccc1OC(F)F	inactive: 12.2%
CCCCOc1ccc(C(=O)NCC2(N3CCOCC3)CCCCC2)cc1	inactive: 7.43%
O=C(NCC1(N2CCCCC2)CCCCC1)c1ccc(F)cc1	inactive: 1.91%
COc1cc(C(=O)NCC2(N(C)C)CCCCC2)ccc1OC(F)F	inactive: -29.6%
COc1ccc(C(=O)NCC2(N3CCCCC3)CCCCC2)c(OC)c1OC	inactive: 0.47%
